Measurements: patent US11254986B2, “Gene signature for immune therapies in cancer” (ALMAC DIAGNOSTICS LIMITED, priority 2015, dated 2022)

Test system: RKO Parental and RKO FANCG-/- cells
Assay: Lymphocyte (PBMC) mediated cytotoxicity, LIVE/DEAD Cell-Mediated Cytotoxicity Kit
Type: cell-based
Conditions: 5:1, FIG. 28
Experimental: The cytotoxic effects of lymphocytes on cancer cells was measured using LIVE/DEAD® Cell-Mediated Cytotoxicity Kit (Life technologies, Paisley, UK.) RKO parental and Fanc G cells were trypsinised, counted and stained with green-fluorescent membrane stain DiOC18 in PBS at a concentration of 2 μl of stain per ml. Cells were incubated with the stain for 20 minutes at 37° C. before being seeded into 12 well plates at a density of 1×10^5 cells per well and left to adhere overnight. The next day PMBCs were counted and added to RKO cell cultures at the ratios indicated. For 1:1 ratio 1×10^5 PBMCs were added, for 5:1 ratio 5×10^5 PBMCs were added. The co-cultures were incubated for 4 hours before cells were collected for analysis by flow cytometry. A BD FACSCalibur™ (BD Biosciences, CA, USA) was used for the analysis of samples and Flow Jo software was used for data analysis. Cells were treated with interferon-γ at a concentration of 20 ng/ml for 16 hours. Cells were treated with LEAF purified anti-human CD274 (Clone 29E.2A3) antibody (BioLegend, CA, USA) at a concentration of 100 μg/ml for 16 hours prior to addition of PBMCs.

PDL1 blocking antibody: LEAF purified anti-human CD274 (Clone 29E.2A3) antibody (BioLegend)
percentage cytotoxicity (PBMC mediated) (DDRD positive RKO FANCG-/- cells, Interferon-γ plus PDL1 antibody versus Interferon-γ alone, p<0.01): significantly more cytotoxicity | percentage cytotoxicity (PBMC mediated) (DDRD positive RKO FANCG-/- cells, Interferon-γ plus PDL1 antibody versus Interferon-γ alone, p<0.01, listed as blocking antibody to PDL-1): reverses resistance to PBMC mediated cytotoxicity | percentage cytotoxicity (PBMC mediated) (Parental RKO cells, IFN plus PDL1 antibody versus IFN alone): no significant difference in cytotoxicity
